Target: T1, sigma2 receptor (Mus musculus, UniProt Q8VD00)
T1 sequence (Q8VD00 1-176): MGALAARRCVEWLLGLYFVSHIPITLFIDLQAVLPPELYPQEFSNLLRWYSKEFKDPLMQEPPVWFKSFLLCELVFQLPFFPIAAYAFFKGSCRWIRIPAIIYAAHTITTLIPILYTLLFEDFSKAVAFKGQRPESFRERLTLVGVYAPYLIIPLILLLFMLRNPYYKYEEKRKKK
Experiment: Sigma2 receptor competition binding against [3H]DTG /
Details: 3.0 nM [3H]DTG / 500 nM (+)-pentazocine; 60 min; 25 °C; mouse lung membranes

SMILES: CC(C)=CCN1CC[C@]2(C)c3cc(O)ccc3C[C@H]1[C@H]2C [(+)-Pentazocine, (+)-pentazocine]
- Sigma2 nH (pseudo-Hill slope): 0.94 ± 0.10
